pIC50, pKi: −log10 of the molar value.
What was measured:
D(3) dopamine receptor [1] = target: T1, D(3) dopamine receptor (Homo sapiens, UniProt P35462); experiment: Antagonist activity against D3R in human U2OS cells assessed as inhibition of (+)-PD128907-induced beta-arrestin translocation by beta-galactosidase based beta-arrestin recruitment assay; type: cell-based
D(3) dopamine receptor [2] = target: T1, D(3) dopamine receptor; experiment: Displacement of [125I]IABN from human D3R expressed in HEK293 cell membranes by gamma counting method

Sequences of proteins named here, by UniProt entry; tags and fusion partners are left off.
UniProt P35462, whole entry: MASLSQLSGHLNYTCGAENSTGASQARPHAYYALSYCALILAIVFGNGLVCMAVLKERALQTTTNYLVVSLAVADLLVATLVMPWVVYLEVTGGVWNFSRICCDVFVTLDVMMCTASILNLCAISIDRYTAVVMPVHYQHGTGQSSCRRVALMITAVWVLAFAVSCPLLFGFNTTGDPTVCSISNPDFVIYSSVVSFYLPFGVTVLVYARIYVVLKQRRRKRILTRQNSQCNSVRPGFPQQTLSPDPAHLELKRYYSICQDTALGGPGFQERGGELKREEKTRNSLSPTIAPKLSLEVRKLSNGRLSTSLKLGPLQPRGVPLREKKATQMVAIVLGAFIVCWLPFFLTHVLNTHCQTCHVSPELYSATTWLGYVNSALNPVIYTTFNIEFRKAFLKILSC

pIC50 (D(3) dopamine receptor [1]): 8.17
pKi (D(3) dopamine receptor [2]): 8.03
Compound: CC(C)(C)c1nc(N2CCN(CCCCNC(=O)[C@H]3CC[C@H](c4ccccc4)CC3)CC2)cc(C(F)(F)F)n1
